This experiment has as its target T1, Polyunsaturated fatty acid 5-lipoxygenase (Homo sapiens, UniProt P09917).
T1 sequence (P09917 whole entry): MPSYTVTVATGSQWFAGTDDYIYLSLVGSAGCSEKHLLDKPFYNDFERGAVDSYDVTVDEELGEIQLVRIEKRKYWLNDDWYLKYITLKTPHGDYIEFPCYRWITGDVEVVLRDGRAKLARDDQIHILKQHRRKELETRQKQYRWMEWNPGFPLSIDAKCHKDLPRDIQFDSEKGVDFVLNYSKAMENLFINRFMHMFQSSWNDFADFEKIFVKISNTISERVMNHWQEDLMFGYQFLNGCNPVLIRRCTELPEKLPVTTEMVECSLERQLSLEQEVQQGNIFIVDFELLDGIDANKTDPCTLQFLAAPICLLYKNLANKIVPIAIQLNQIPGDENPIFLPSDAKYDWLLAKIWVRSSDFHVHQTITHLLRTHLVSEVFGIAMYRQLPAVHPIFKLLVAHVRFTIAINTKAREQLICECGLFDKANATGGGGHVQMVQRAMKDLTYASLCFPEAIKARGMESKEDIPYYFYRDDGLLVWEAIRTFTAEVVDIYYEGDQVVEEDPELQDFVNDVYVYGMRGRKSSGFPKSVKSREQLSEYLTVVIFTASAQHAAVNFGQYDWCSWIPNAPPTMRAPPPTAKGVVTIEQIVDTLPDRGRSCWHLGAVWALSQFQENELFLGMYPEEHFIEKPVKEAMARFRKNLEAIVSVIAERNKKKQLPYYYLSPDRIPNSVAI
The experiment is described as follows: For determination of the activity of 5-LO in 40000g supernatant (S40), aliquots of the supernatants were added to reaction mix, and were preincubated with the test compounds before arachidonic acid was added to start 5-LO product formation. Formed 5-LO metabolites were extracted and analyzed by HPLC. 5-LO product includes LTB4 and its all-trans isomers, and 5(S)-hydro(pero)xy-6-trans- 8,11,14-cis-eicosatetraenoic acid. IC50s are expressed as mean +/- SE, obtained from measurements at 4-5 different concentrations of test compounds, and determined using Graphpad Instat (Graphpad Software Inc., San Diego, CA). EC50/IC50 values were obtained from product formation in intact neutrophils.

In general, EC50 refers to the concentration that produces a half-maximal response. Turning to `CCOC(=O)c1c(CCc2cccc(Cl)c2)[nH]c2c1cc(O)c1ccccc12` [5-hydroxy-1H-benzo[g]indole-3-carboxylate, 11m], the EC50 worked out at 490 nM.

On to `CCOC(=O)c1c(Cc2cccc(F)c2)[nH]c2c1cc(O)c1ccccc12` [5-hydroxy-1H-benzo[g]indole-3-carboxylate, 11d], for which, where the note is “pH 7.4, 37 °C”, the EC50 came out at 340 nM. Regarding `C=CCN(CC=C)c1[nH]c2ccccc2c1C(=O)OC` [2-substituted indole-3-carboxylate, 27h], where the note is “pH 7.4, 37 °C”, the EC50 came to 12500 nM. On to `CCOC(=O)c1c(Cc2cccc(Cl)c2)[nH]c2c1cc(-c1ccccc1)c1ccccc12` [1H-benzo[g]indole-3-carboxylate, 36], for which the EC50 was greater than 30000 nM. Consider `CCOC(=O)c1c(Cc2ccc(C(F)(F)F)cc2)[nH]c2c1cc(O)c1ccccc12` [5-hydroxy-1H-benzo[g]indole-3-carboxylate, 11j], for which, for the setting “pH 7.4, 37 °C”, the EC50 is 1700 nM.

As to `CCOC(=O)c1c(Cc2ccc(Cl)cc2)n(Cc2ccccc2)c2c1cc(O)c1ccccc12` [5-hydroxy-1H-benzo[g]indole-3-carboxylate, 11p], the EC50 was determined as 1800 nM. Take `CCOC(=O)c1c(CCc2ccc(Cl)cc2)[nH]c2c1cc(O)c1ccccc12` [5-hydroxy-1H-benzo[g]indole-3-carboxylate, 11n]: the EC50 worked out at 2800 nM. `CCOC(=O)c1c(Cc2cccc(Cl)c2)n(C)c2c1cc(OC)c1ccccc12` [1H-benzo[g]indole-3-carboxylate, 32]: the 50% effective concentration (EC50) was greater than 30000 nM. For `C=CCNc1[nH]c2ccccc2c1C(=O)OC` [2-substituted indole-3-carboxylate, 27g], the EC50 (pH 7.4, 37 °C) was greater than 30000 nM. For `COC(=O)c1c(Nc2cccc(F)c2)[nH]c2ccccc12` [2-substituted indole-3-carboxylate, 27d], the EC50 (pH 7.4, 37 °C) was 7900 nM. In the case of `CCOC(=O)c1c(Cc2cccc(Cl)c2)[nH]c2cc(-c3ccc(-c4ccccc4)cc3)c(O)cc12` [5-hydroxy-1H-indole-3-carboxylate, 22], the EC50 was determined as 2800 nM.
